Reference: US12121500B2, “Inhibitors of Bunyaviridae and uses thereof” (priority 2020, dated 2024)

Experiments:
HepDES19 = experiment: Cytotoxicity in HepDES19 cells, MTS assay; settings: read-out: CC50 HepDES19, 3 days, * marks limit value
human ribonuclease H1 = biological target: T1, human ribonuclease H1 (Homo sapiens, UniProt O60930); experiment: biochemical
T1 construct: made in house; host or cells: E. coli
T1 sequence (O60930 1-286): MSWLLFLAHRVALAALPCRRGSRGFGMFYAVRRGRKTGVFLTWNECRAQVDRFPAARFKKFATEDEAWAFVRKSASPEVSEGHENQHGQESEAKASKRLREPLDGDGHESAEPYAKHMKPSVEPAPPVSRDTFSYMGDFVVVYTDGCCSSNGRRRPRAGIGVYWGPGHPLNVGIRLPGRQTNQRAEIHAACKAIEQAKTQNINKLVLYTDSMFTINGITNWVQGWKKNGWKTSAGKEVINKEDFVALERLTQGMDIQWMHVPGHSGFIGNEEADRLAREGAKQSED

Cc1cc(O)c(=O)c(O)cc1S(=O)(=O)c1ccccc1 [Compound 336]
CC50 (HepDES19): 45.4 µM

CC(C)Sc1ccc(SC(C)C)c(O)c(=O)c1O [Compound 696]
IC50 (human ribonuclease H1): > 500 µM
